Results reported in patent publication US10898481B2 (priority 2018, dated 2021).

Protein sequences, listed by entry. Tags and fused reporters are not part of them.
UniProt P29275, whole entry: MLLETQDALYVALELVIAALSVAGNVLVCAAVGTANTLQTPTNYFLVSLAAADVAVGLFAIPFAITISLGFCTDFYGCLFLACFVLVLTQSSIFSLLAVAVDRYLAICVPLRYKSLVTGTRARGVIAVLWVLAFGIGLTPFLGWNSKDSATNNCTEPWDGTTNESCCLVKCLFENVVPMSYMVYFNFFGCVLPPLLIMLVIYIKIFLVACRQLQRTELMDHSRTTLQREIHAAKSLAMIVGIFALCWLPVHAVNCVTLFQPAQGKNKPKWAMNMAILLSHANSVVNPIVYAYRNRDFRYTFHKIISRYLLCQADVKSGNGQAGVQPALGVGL
UniProt Q60613, whole entry: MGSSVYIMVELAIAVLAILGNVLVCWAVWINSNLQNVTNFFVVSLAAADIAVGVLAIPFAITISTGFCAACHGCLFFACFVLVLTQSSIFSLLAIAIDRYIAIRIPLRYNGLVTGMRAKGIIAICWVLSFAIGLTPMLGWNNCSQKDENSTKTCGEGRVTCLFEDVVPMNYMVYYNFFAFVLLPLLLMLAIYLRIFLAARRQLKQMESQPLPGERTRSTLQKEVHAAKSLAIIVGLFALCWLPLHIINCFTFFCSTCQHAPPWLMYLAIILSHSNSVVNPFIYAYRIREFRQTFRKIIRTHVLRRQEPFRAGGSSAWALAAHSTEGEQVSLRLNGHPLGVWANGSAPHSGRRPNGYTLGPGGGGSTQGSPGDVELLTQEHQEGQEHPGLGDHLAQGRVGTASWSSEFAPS

Experiments:
[1] = target: hA2a/CHO (Homo sapiens (Human), UniProt P29274); test: cAMP inhibition assay in hA2a/CHO cells, 10 μM adenosine; type: cell-based; settings: read-out: cAMP & FLIPR IC50 (nM) hA2a;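 note: compounds added to cells 30 min ahead of adenosine, then a further 30 min at 37 °C with adenosine before cAMP detection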
[2] = target: hA2b/CHO (Homo sapiens (Human), UniProt P29275); test: cAMP inhibition assay in hA2b/CHO cells, 10 μM adenosine; settings: read-out: cAMP & FLIPR IC50 (nM) hA2b;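 note: cells exposed to compound 30 min at 37 °C, then stimulated with adenosine a further 30 min, cAMP read after 60 min at room temperature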
[3] = target: mA2a/CHO (Mus musculus (Mouse), UniProt Q60613); test: cAMP inhibition assay in mA2a/CHO cells, 10 μM adenosine; settings: read-out: cAMP & FLIPR IC50 (nM) mA2a;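 note: compounds preincubated 30 min at 37 °C before the adenosine challenge, then 30 min further stimulation, readout after 60 min detection reagent incubation at room temperature in 384-well plates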

Q: Which results are given for `CN1CCCC1CNC(=O)c1nc(-c2ccc3ncc(Cl)n3c2)c(-c2ncco2)nc1N` (stereo in doubt) [Cmpd. 209, 3-amino-6-[3-chloroimidazo[1,2-a]pyridin-6-yl]-N-[[(2S)-1-methylpyrrolidin-2-yl]methyl]-5-(1,3-oxazol-2-yl)pyrazine-2-carboxamide]?
A: IC50 [1]: 19 nM; IC50 [2]: 1040 nM; IC50 [3]: 99 nM
